The nature of data set [1]: Comparative study: myocardial and hepatic uptake of 99mTc-MIBI versus 99mTc-Mito10-MAG3. In kind it is in vivo, rats. The protocol:
^99mTc-MIBI of clinical formulation was purchased from Bristol Myers Squibb. At 48 hours after the breast tumors were first identified using ^99mTc-Mito10-MAG3, the same rats were injected with ^99mTc-MIBI (1 mCi per rat) via the tail vein. At this time, the radioactivity from the ^99mTc-Mito10-MAG3 injection already had cleared to background from the animals due to physical decay and excretion. Dynamic images were acquired in identical fashion following 99mTc-MIBI injection.
In a comparative study, the myocardial uptake of ^99mTc-MIBI peaked at 2.70±0.4% ID/g within minutes after injection, and remained above 2.41±0.3% ID/g for at least 90 min. Comparatively, the myocardial uptake level of ^99mTc-Mito10-MAG 3 is 10, 40, and 120 fold lower than the uptake level of ^99mTc-MIBI at 3, 10 and 30 min after injection. The hepatic uptake of ^99mTc-MIBI was at 0.37±0.14% ID/g at 30 min after injection.

Data set [2] relates to DMBA-induced breast carcinoma. The data set can be described thus: In vivo gamma camera imaging of DMBA-induced breast carcinoma in rats. Details: species or system rats (female Sprague Dawley). The protocol: The animal protocol was approved by institutional IACUC review and followed NIH guidelines. The rat model of DMBA-induced breast carcinoma was used.
As an initial feasibility study, rats were induced with 65 mg/kg DMBA dissolved in sesame oil via a single oral gavage to the stomach. Eleven weeks later, three rats with established breast carcinoma (0.5 to 1.9 cm in diameter) were imaged after ^99mTc-Mito10-MAG3 injection (10 μg, 1 mCi) using a constant rate infusion pump for a total injection volume of 150 μl over a period of 35 min. Static images were acquired on a GE XRT gamma camera using a high-resolution parallel-hole collimator, 512×512 matrix size, 22.5×22.5 cm field of view, 140±15 keV energy window, 100 k counts. Unexpectedly, apart from the established palpable carcinomas, additional small (millimeter size) tumors were discovered by this imaging technique in the same animals. This finding promoted a longitudinal study to investigate the early detection of neoplastic growth using ^99mTc-Mito10-MAG3.
Six 48-day-old female rats were injected with 65 mg/kg DMBA. At each week after DMBA induction, the rats were imaged using the following protocol. Each rat was anesthetized with 1.6% isoflurane in room air supplemented with oxygen. The rat was immobilized in a prone position on the surface of the gamma camera. ^99mTc-Mito10-MAG3 (10 μg, 1 mCi) was injected via the tail vein using a constant rate infusion pump for a total injection volume of 150 μl over a period of 35 min. Dynamic images were continuously acquired at one frame per min for 90 min using the imaging parameters set forth hereinabove. The weekly imaging regiment was continued for all six rats until palpable tumors became detectable, which typically takes place between seven to nine weeks after the administration of DMBA. Due to the relatively short physical half-life of ^99mTc (6 hr), no residual signal, therefore, no cross-contamination is detectable from the previous injection the week before.
^99mTc-MIBI of clinical formulation was purchased from Bristol Myers Squibb. […] At this time, the radioactivity from the ^99mTc-Mito10-MAG3 injection already had cleared to background from the animals due to physical decay and excretion. […]
Imaging data analysis was carried out using an inbuilt software, by carefully drawing a region of interest (ROI) on the tumor site to determine the radioactivity counts in the ROI. […] Radioactivity counts were determined in each ROI. Tumor-to-normal and tumor-to-muscle ratios were calculated as the count ratio between the two ROIs.
The rats were sacrificed by CO2 asphyxiation and the number and location of the mammary tumors were recorded at necropsy. The tumors were dissected, with the diameter and weight measured and documented. […]

The conditions of data set [3]: urine sample 30 min after intravenous injection; radioHPLC. The protocol:
Rats (n=3) were sacrificed at 1, 3, 5, 10, 30 and 60 min after injection and the distribution of radioactivity in different tissues was determined by gamma well counting with an energy window of 140±15 keV. The biodistribution data is expressed in terms of percentage injected dosage per gram (% ID/g) with mean±standard deviation. Urine samples were collected from the bladder at 30 min after injection, and were analyzed by radioHPLC to determine the presence of metabolic derivatives of the radiotracer. […] Specifically, anterior planar whole-body dynamic images were acquired on an XRT gamma camera (General Electric) using a high-resolution medium energy parallel-hole collimator at one frame per minute for 60 min, with 512×512 matrix, and an energy window of 140±15 keV.

Entries after “also recorded” stand apart in the source; their conditions may differ.

Regarding `CC(=O)[S+]1CC(=O)[N]2CC(=O)[N]3CC(=O)[N](CC(=O)NCCCCCCCCCC[P+](c4ccccc4)(c4ccccc4)c4ccccc4)[99Tc]321=[O].[Br-]` (centres unmarked) [^99mTc-Mito10-MAG3], the “myocardial uptake level, fold lower than 99mTc-MIBI” value is reported as 10 fold in data set [1] (3 min after injection), 40 fold in data set [1] (10 min after injection) and 120 fold in data set [1] (30 min after injection). Also, the “tumor-to-non-tumor ratio compared with 99mTc-MIBI” value in data set [2] (DMBA-induced breast carcinoma in rats) was “similar”. For the same compound, the tumor-to-normal ratio in data set [2] (ROI count ratio tumor vs contralateral normal mammary gland, longitudinal experiment, at the time of detection) is given as 2.39±0.77. Also, the tumor-to-muscle ratio in data set [2] (ROI count ratio tumor vs thigh muscle, longitudinal experiment, at the time of detection) was 6.61±1.74. For the same compound, the “detection of tumors as focal radioactivity uptake relative to palpation” value in data set [2] (longitudinal experiment, four tumors in mammary glands a and b, all four detected) is given as “at least one week earlier than by palpation”. The “radioactive metabolites in urine” value in data set [3] is reported as “detected in urine samples; also recorded: radioactive metabolites are present”.

For the origin of these results see patent US8388931B2, “99m Tc-labeled triphenylphosphonium derivative contrasting agents and molecular probes for early detection and imaging of breast tumors” (priority 2008, dated 2013).
